In one assay the target is recombinant human Mcl-1 (Homo sapiens, UniProt Q07820). Briefly: Cell free Mcl-1:Bim affinity assay (Mcl-1 HTRF, TR-FRET). Format: binding. The note with it: read-out: Mcl-1 HTRF, inhibition of Mcl-1/Bim interaction. In general terms: Time-resolved FRET reads energy transfer from a long-lived donor to a nearby acceptor.
Another assay concerns OPM-2. Briefly: Cell viability assay (OPM-2 10 FBS, CellTiter-Glo). The note with it: read-out: OPM-2 10% FBS, OPM-2 cells, 16 h. Format: cell-based, human. A general note: Cellular ATP, detected with luciferase, serves as a proxy for viable cell number.
The target of assay [1] is Mcl-1/Bak protein-protein interactions (Homo sapiens, UniProt Q07820). The assay can be described thus: Cell-based split luciferase complementation assay. The note with it: read-out: Split Luciferase; HEK 293 M cells, serum-free, 4 h.

Amino acid sequences for entries named in this document (tags omitted). Residues count along the entry.
UniProt Q07820, whole entry: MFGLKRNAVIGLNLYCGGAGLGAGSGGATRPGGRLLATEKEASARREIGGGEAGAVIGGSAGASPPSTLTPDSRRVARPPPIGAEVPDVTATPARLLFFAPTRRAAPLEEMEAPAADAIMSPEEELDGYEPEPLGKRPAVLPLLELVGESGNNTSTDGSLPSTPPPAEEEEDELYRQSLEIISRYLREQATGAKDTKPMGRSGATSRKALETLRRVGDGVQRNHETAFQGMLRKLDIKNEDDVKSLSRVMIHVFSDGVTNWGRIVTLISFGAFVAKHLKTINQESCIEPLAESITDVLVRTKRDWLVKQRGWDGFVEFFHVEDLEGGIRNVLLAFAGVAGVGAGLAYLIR
UniProt Q07820, 171-327 limits assumed: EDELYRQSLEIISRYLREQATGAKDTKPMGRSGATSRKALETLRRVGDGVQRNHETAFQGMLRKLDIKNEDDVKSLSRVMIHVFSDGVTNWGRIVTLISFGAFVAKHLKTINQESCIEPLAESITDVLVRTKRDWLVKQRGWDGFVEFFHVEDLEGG

Structures are written as SMILES.

Regarding `CCCCC1C(C)C/C=C/[C@H](O)[C@@H]2CC[C@H]2CN2C[C@@]3(CCCc4cc(Cl)ccc43)COc3ccc(cc32)C(=O)NS1(=O)=O` (stereo partly drawn), the IC50 at recombinant human Mcl-1 is 5.42 nM; with OPM-2, 2220 nM; in assay [1], 354 nM.

`CO[C@H]1/C=C/CC(C)C(CC2CC2)S(=O)(=O)NC(=O)c2ccc3c(c2)N(C[C@@H]2CC[C@H]21)C[C@@]1(CCCc2cc(Cl)ccc21)CO3` (stereo partly drawn): the results for the IC50 (on recombinant human Mcl-1; in the assay with OPM-2; in assay [1]) were 10.3 nM, 6700 nM and 166 nM, respectively.

With `CCCCC1C(C)C/C=C\[C@H](O)[C@@H]2CC[C@H]2CN2C[C@@]3(CCCc4cc(Cl)ccc43)COc3ccc(cc32)C(=O)NS1(=O)=O` (single isomer, unassigned), the results for the IC50 (at recombinant human Mcl-1; in the assay on OPM-2; in assay [1]) were 2.71 nM, 1560 nM and 169 nM, respectively.

For the molecule `CO[C@H]1/C=C/CC(C)CS(=O)(=O)NC(=O)c2ccc3c(c2)N(C[C@@H]2CC[C@H]21)C[C@@]1(CCCc2cc(Cl)ccc21)CO3` (single isomer, unassigned), the IC50 at recombinant human Mcl-1 came out at 0.81 nM; with OPM-2 it was 242 nM; in assay [1], 49.5 nM.

(Values after patent US11685747B2, “Compounds that inhibit MCL-1 protein” (AMGEN INC., priority 2014, dated 2023).)
